## Antibody variant affinities, Ab-95 light chain, assay 2

Target: peptide PDVDLGDISGINAS, taken from heptad repeat 2 (HR2) of SARS-CoV-2 spike.

Each scFv is VH, a 15-residue (Gly4Ser)3 linker, VL, as in the parent Ab-95, and differs from it in the CDRs of the light chain only.
VH: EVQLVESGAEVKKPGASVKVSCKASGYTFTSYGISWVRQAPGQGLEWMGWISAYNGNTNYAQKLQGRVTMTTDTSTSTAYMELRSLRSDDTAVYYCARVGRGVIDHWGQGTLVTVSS
VL: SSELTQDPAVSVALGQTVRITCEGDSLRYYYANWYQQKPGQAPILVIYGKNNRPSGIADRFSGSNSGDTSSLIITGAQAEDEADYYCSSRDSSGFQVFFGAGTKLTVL

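Phage display of a naive human antibody library on the peptide gave the parent. Library AAYL52 holds single substitutions and randomly drawn double and triple substitutions in the CDRs. The assay is AlphaSeq: two haploid yeast populations carry antibody and antigen on their surface. Mating (16 h, 30 °C) was followed by selection of diploids and sequencing of their barcodes. Read counts were normalised to the haploid input and turned into Kd by a linear fit to BCL2-family pairs of known affinity, for each replicate. Each pool was mated in three replicate cultures.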

Positions count from residue 1 of the parent VL; E23M puts M in place of E.
The read-out is the apparent dissociation constant on a log10 scale (nM): the lower, the stronger.
Replicates are averaged; those with no signal do not enter the mean.
A pair that was not seen in any replicate is written "no signal"; this usually means weak binding, but a binder can also be missed.
For reference, the parent read 2.31 as the reference entry and 2.25 as a member of this library.
Three control strains display no target. For library AAYL52, 28% of the pairings with them gave a signal, with a median of 3.91 and one signal in twenty below 2.90, so weak values seen in few replicates may be background.

| # | changes | mean, log10 nM | seen in |
|---|---|---|---|
| 1 | E23M/Y30I/A32W | 3.50 | 3 of 3 |
| 2 | L27Y/A32W/S92R | 4.23 | 3 of 3 |
| 3 | S26V/R28G/N51Q | 4.41 | 3 of 3 |
| 4 | Y30I/K50C | no signal | 0 of 3 |
| 5 | L27Q/N52P/S89V | 4.28 | 1 of 3 |
| 6 | E23Y/R28I/N33W | 5.16 | 1 of 3 |
| 7 | E23D/G49S/S55M | no signal | 0 of 3 |
| 8 | Y30V/K50F/V97R | 3.96 | 2 of 3 |
| 9 | G24P/D25R/L27M | no signal | 0 of 3 |
| 10 | Y29G/R53E/P54C | 2.64 | 3 of 3 |
| 11 | G49H/S55P/F98L | 3.25 | 1 of 3 |
| 12 | G24N/N33M/S88N | 4.73 | 1 of 3 |
| 13 | R53E/Q96Y | 5.28 | 1 of 3 |
| 14 | R28F/S55M/S89R | 3.21 | 3 of 3 |
| 15 | D25I/Y29F | 3.13 | 2 of 3 |
| 16 | E23H/N52K/G94Q | 4.08 | 3 of 3 |
| 17 | K50G/P54F/V97A | 4.66 | 1 of 3 |
| 18 | R90V/D91E/F98Q | 4.09 | 2 of 3 |
| 19 | S88Q/S92E/F98Y | 3.32 | 2 of 3 |
| 20 | E23A/D91K/Q96P | 2.11 | 3 of 3 |
| 21 | R28K/Y30E/R53Y | 3.03 | 3 of 3 |
| 22 | K50Q/N51D/Q96W | 2.40 | 3 of 3 |
| 23 | S26C/L27R/S89D | 5.49 | 1 of 3 |
| 24 | R53Y/S93W | no signal | 0 of 3 |
| 25 | G24E/R28P/V97H | 4.57 | 2 of 3 |
| 26 | D25R/N52T/S89F | 3.13 | 3 of 3 |
| 27 | D25A/Y29S/K50E | 1.09 | 3 of 3 |
| 28 | K50Y/R90P/F95V | 4.78 | 2 of 3 |
| 29 | G24C/S26V/S55M | 4.27 | 1 of 3 |
| 30 | N51E/S92Y/F95H | 3.89 | 3 of 3 |
| 31 | Y31P/S92G/S93P | 1.56 | 3 of 3 |
| 32 | Y29R/N33I/S55L | 1.89 | 3 of 3 |
| 33 | D25Y/P54T/S93I | 3.82 | 2 of 3 |
| 34 | A32G/N51E/G94S | 4.15 | 2 of 3 |
| 35 | A32P/G49H/N51T | 2.73 | 1 of 3 |
| 36 | Y31G/S55I/S89A | 1.24 | 3 of 3 |
| 37 | S26L/N51V/S92Q | 3.97 | 1 of 3 |
| 38 | L27V/Y29G/D91R | 2.83 | 3 of 3 |
| 39 | K50V/R53E/P54S | 4.09 | 1 of 3 |
| 40 | R53Q/P54V/Q96H | 2.80 | 3 of 3 |
| 41 | E23I/S92I/F98L | 3.06 | 1 of 3 |
| 42 | G49Y/P54A | 5.32 | 1 of 3 |
| 43 | S55M/S93I | 4.53 | 3 of 3 |
| 44 | L27E/K50R/V97Y | no signal | 0 of 3 |
| 45 | N33A/P54I/Q96P | no signal | 0 of 3 |
| 46 | D25V/N52R/G94W | no signal | 0 of 3 |
| 47 | E23V/G24E/Y31I | 3.25 | 2 of 3 |
| 48 | D25G/S93R/V97S | no signal | 0 of 3 |
| 49 | D25C/R28I/N51R | 3.97 | 2 of 3 |
| 50 | G49K/N51A/R53A | 4.78 | 2 of 3 |
| 51 | S89H/F95P/F98A | 2.59 | 2 of 3 |
| 52 | Y30T/R90N/V97E | 2.39 | 3 of 3 |
| 53 | R28P/Y29D/S92M | 1.32 | 3 of 3 |
| 54 | S26G/Y30S | 1.34 | 3 of 3 |
| 55 | Y30S/S93P/F95Y | 1.33 | 3 of 3 |
| 56 | R28L/Y31G/S88M | 1.20 | 3 of 3 |
| 57 | Y29K/G94M | 3.64 | 2 of 3 |
| 58 | G24R/N52I/R53M | 5.20 | 2 of 3 |
| 59 | R28N/P54Q/S55H | 3.52 | 3 of 3 |
| 60 | E23F/Y29G/S93Q | 2.74 | 3 of 3 |
| 61 | Y29S/N33A/P54A | 4.55 | 1 of 3 |
| 62 | Y30N/Y31N/P54F | 0.65 | 3 of 3 |
| 63 | N33I/N52Y/G94R | 2.93 | 1 of 3 |
| 64 | D25L/S55V/S88E | 2.29 | 3 of 3 |
| 65 | Y30P/K50F/N52D | 3.08 | 3 of 3 |
| 66 | D25A/N33L/P54E | 3.78 | 2 of 3 |
| 67 | D25I/A32S/S93A | 3.24 | 2 of 3 |
| 68 | N52F/S55R | 3.12 | 3 of 3 |
| 69 | E23M/V97I | 2.59 | 3 of 3 |
| 70 | Y30A/D91N/G94S | 2.10 | 3 of 3 |

5 of these entries, quoted again:

changes,"mean, log10 nM",seen in
A32G/N51E/G94S,4.15,2 of 3
N33A/P54I/Q96P,no signal,0 of 3
Y30V/K50F/V97R,3.96,2 of 3
Y30T/R90N/V97E,2.39,3 of 3
S26L/N51V/S92Q,3.97,1 of 3

Values reported by Engelhart et al. 2022, doi:10.1038/s41597-022-01779-4 (FLAb copy).